The target of this assay is VBC ternary complex (pVHL, Elongin B, Elongin C) (UniProt P40337 1-213; Q15370 1-104; Q15369 17-112). Kind of assay: BLI. For orientation: Biolayer interferometry detects binding as a change in optical thickness at a sensor tip.

Amino acid sequences for entries named in this document (tags omitted). Chains listed by the source or under a name are the forms on record and can include a tag or linker. Residues count along the entry.
UniProt P40337, 54-213, chain 1 of 3: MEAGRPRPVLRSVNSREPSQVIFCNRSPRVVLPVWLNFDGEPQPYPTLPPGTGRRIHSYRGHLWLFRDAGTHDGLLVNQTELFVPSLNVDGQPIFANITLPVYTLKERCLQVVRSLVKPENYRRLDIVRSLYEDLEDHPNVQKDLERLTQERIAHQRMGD
VBC ternary complex (pVHL, Elongin B, Elongin C), UniProt Q15370, 1-104, chain 2 of 3: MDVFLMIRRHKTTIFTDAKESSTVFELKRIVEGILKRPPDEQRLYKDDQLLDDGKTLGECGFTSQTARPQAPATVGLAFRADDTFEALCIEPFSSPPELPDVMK
VBC ternary complex (pVHL, Elongin B, Elongin C), UniProt Q15369, other isoform, or with tags, fused parts or gaps, chain 3 of 3: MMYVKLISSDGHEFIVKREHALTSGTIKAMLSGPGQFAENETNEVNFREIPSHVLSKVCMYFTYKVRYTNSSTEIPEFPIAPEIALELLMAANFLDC

One may read the Kd as the concentration at which binding is half-saturated. A low value points to higher affinity.

For MSLKPRVVDF (C-terminal amide) [N-terminal Cul2 peptide, 10-mer], the Kd was found to be 4 mM. The figure for MSLKPRV (C-terminal amide) [N-terminal Cul2 peptide, 7-mer] is 3.5 mM; for MSLKPR (C-terminal amide) [N-terminal Cul2 peptide, 6-mer] it is 3.3 mM.
